Assay outcomes: PubChem BioAssay, National Center for Advancing Translational Sciences (NCATS)
Most compounds without a hit are left out; they make up all but 16% or so of the library.
TDP1 cell CPT: DT40-hTDP1 cell growth loss with CPT | chicken DT40 Tdp1-/-;hTDP1 cells + 20 nM CPT, ATP luminescence, 48 h | Potency, µM (series often up to 46.2 µM), actives largely listed as inhibitors | actives 12% (n = 420,000) | AID 686979; note: nearly all actives have a fitted effect of over 55% in size
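Chicken DT40 Tdp1-/- cells complemented with human TDP1, 400 cells/well, exposed to compounds plus 20 nM camptothecin for at least 48 h at 37 C; viability read as ATP content by CellTiter-Glo luminescence.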
miR-21 reporter: raises the signal of a miR-21 reporter | HeLa miR-21 FLuc reporter, luciferase, 48 h | Potency, µM (doses to about 38.3 µM) | 340,000 tested, under 10 active | AID 2288; active = well fitted rising curve with a large enough effect; inconclusive = small, poorly fitted or top-dose-only effect; inactive = no such curve, though single readings can be large or run the other way;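 also: miR-21 action dims this reporter so a rising signal means less miR-21 action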
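Compounds were titrated across several concentrations (up to approximately 40 uM) and incubated 48 hours with HeLa miR-21-FLuc reporter cells (miR-21 target sequence downstream of FLuc, endogenous miR-21). Readout was firefly luciferase luminescence after lytic detection reagent.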
TDP1 block: inhibitors of human tyrosyl-DNA phosphodiesterase TDP1. Q9NUW8. recombinant TDP1, AlphaScreen DNA substrate cleavage. Potency, µM (top dose mostly 130 µM), most hits filed as inhibitors. actives 0.28% (n = 350,000). AID 485290; note: nearly all actives have a fitted effect of over 40% in size
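Recombinant human Tdp1 (E. coli-expressed, 1 nM final) preincubated with compounds 15 min at room temperature, then 5'-biotin/3'-phosphotyrosine-FITC DNA substrate (15 nM final) added for 5 min. AlphaScreen beads (10 ug/ml final) added 10 min; cleavage lowers signal.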
uPA generation: inhibitors of cell surface uPA generation | cell surface uPA generation assay, qHTS | Potency, µM (titrated, usually from 38.3 µM), most hits filed as inhibitors | actives 0.31% (n = 330,000); active = well fitted inhibition curve with a large enough effect; inconclusive = small, poorly fitted or top-dose-only effect; inactive = no such curve, though single readings can be large or run the other way; tested in mouse RAW 264.7 cells; note: nearly all actives have a fitted effect of over 55% in size
DT40 TDP1 no CPT: qHTS for Inhibitors of human tyrosyl-DNA phosphodiesterase 1 (TDP1): qHTS in cells in absence of CPT | actives 15% (n = 420,000) | DT40 Tdp1-/- hTDP1 cells, no CPT, ATP luminescence, 48 h | AID 686978, 2013 | Potency, µM (top dose mostly 46.2 µM), actives largely listed as inhibitors; note: nearly all actives have a fitted effect of over 55% in size
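Compound effects on proliferation are scored in DT40 Tdp1-/-;hTDP1 cells in the absence of CPT. ATP levels (CellTiter-Glo luminescence) are recorded after a ≥48 hr, 37 °C incubation.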
Hits are given with their value; – = inactive; ? = inconclusive; · = no result. Unless noted, calls come from the whole dose curve; as a rule, active = well fitted curve in the direction sought with a large enough effect; inconclusive = small, poorly fitted or top-dose-only effect, or another doubt; inactive = no such curve, though single readings can be large; an effect the other way counts as inactive or inconclusive.

SMILES	TDP1 cell CPT	miR-21 reporter	TDP1 block	uPA generation	DT40 TDP1 no CPT
Nc1cc(=O)[nH]c(SCC(=O)N2N=C(c3ccc(Cl)cc3)CC2c2ccco2)n1 (stereo not given)	18µM	–	–	–	?
COc1ccc(C2=NN(C(=O)CSc3nnc(-c4ccccc4F)o3)C(c3ccco3)C2)cc1 (stereo not given)	?	–	–	–	21µM
O=C(OCc1ccccc1)N1CCC2CC1c1cc(N3CCN(S(=O)(=O)c4cccc5ccccc45)CC3)ccc12 (stereo not given)	–	·	·	·	?
CCc1ccccc1NC(=O)c1cc(S(=O)(=O)N2CCCC2)cn1C	?	–	–	·	–
Cc1ccc(NC(=O)COC(=O)C2COc3ccccc3O2)cc1S(=O)(=O)N1CCOCC1 (stereo not given)	–	–	–	–	–
CCC(=O)N1N=C(c2ccc(Cl)cc2)CC1c1ccco1 (stereo not given)	23µM	–	–	–	12µM
COc1ccc(C2=NN(C(=O)c3ccco3)C(c3ccco3)C2)cc1OC (stereo not given)	29µM	–	–	–	18µM
COCC(=O)OCC(=O)N1N=C(c2ccc(Cl)cc2)CC1c1ccco1 (stereo not given)	–	–	–	–	–
CC(C)[C@H](NS(=O)(=O)c1ccccc1)C(=O)OCC(=O)N1N=C(c2ccc(Cl)cc2)CC1c1ccco1 (stereo not given in full)	18µM	–	–	–	13µM
Cc1ccc(C2=NN(C(=O)CSc3nccn3C)C(c3ccco3)C2)cc1 (stereo not given)	21µM	–	–	–	21µM
COc1ccc(C2=NN(C(C)=O)C(c3cccs3)C2)cc1OC (stereo not given)	–	–	·	–	–
Cc1ccc(C2=NN(C(=O)CSc3nc4ncc(Cl)cc4[nH]3)C(c3ccco3)C2)cc1 (stereo not given)	–	–	–	–	–
Cc1cc(O)c(C(c2ccccc2)N2CCCCC2)c(=O)n1Cc1ccco1 (stereo not given)	–	–	–	·	–
O=C(NCC(c1ccco1)N1CCCCC1)c1ccc2c(c1)S(=O)(=O)c1ccccc1C2=O (stereo not given)	?	–	–	?	?
CCc1ccc(C2=NN(C(C)=O)C(c3ccco3)C2)cc1 (stereo not given)	?	–	–	–	16µM
O=C(COc1cccnc1[N+](=O)[O-])N1N=C(c2ccc(Cl)cc2)CC1c1ccco1 (stereo not given)	?	–	–	–	2.9µM
O=C(c1ccco1)N1N=C(c2cccs2)CC1c1ccco1 (stereo not given)	–	–	–	–	–
Cc1ccc(OCC(=O)N2N=C(c3ccc(Cl)cc3)CC2c2ccco2)c([N+](=O)[O-])n1 (stereo not given)	?	–	–	–	?
O=C(c1ccco1)N1N=C(c2ccc(Cl)cc2)CC1c1ccco1 (stereo not given)	18µM	–	–	–	9.2µM
CN1CC(=O)N(CC(=O)N2N=C(c3ccc(Cl)cc3)CC2c2ccco2)C1=O (stereo not given)	?	–	–	–	?
CCCCn1c(N)c(N(CC(C)C)C(=O)CSc2nnc(C)n2-c2ccccc2)c(=O)[nH]c1=O	–	·	·	–	–
O=[N+]([O-])/C(C(=C(Cl)Cl)N1CCN(Cc2ccccc2)CC1)=C1\NCCN1Cc1ccc(Cl)nc1	?	–	–	–	15µM
CN(C)C(=O)CSc1nnc(-c2cccnc2)n1-c1ccccc1	–	–	–	–	–
Clc1ccc(-n2c(SC/C=C/c3ccccc3)nnc2-c2cccnc2)cc1	23µM	–	–	·	?
O=C(CSc1nnc(-c2cccnc2)n1-c1ccccc1)Nc1ccccn1	?	–	–	–	16µM
COC(=O)C(O)(CC(=O)Nc1ccc(OC)cc1)C(F)(F)F (stereo not given)	–	–	–	–	–
Cc1ccccc1OCc1nc2c3cnn(-c4ccccc4Br)c3ncn2n1	?	–	–	·	?
